The assay concerns MDA-MB-231 (MDA 231, human breast adenocarcinoma). Nature of the assay: CCK-8 cell viability assay on MDA-MB-231 human breast adenocarcinoma cells. The class given is cell-based. For orientation: Tetrazolium assays rely on reduction of a dye to a coloured formazan, in cell work by metabolically active cells.
Setting [1] is: MDA-MB-231 cells, 48 hours compound incubation, CCK-8, read-out: EC50 (uM, MDA 231).
Setting [2] is: MDA-MB-231, 48 h, read-out: EC50 (uM, MDA 231).

The structures appear in SMILES notation. Where two headings read alike, the source gives them in different places.

EC50 data for 27 molecules are collected here from patent US11091477B2 (Madera Therapeutics, LLC, priority 2016, dated 2021).

Usually EC50 stands for the midpoint of the concentration-response curve. With `Cn1c2c(c(=O)[nH]c1=O)CN(Cc1ccccc1)CC2` [Example 1, 6-benzyl-1-methyl-5,6,7,8-tetrahydropyrido[4,3-d]pyrimidine-2,4(1H,3H)-dione], the EC50 under setting [1] is greater than 100 µM. On the same count and under the same terms, next, `Cc1cccc(Cn2c(=O)[nH]c3c(c2=O)CN(Cc2ccccc2)CC3)c1` [Example 2, 6-benzyl-3-[(3-methylphenyl)methyl]-1H, 2H, 3H, 4H, 5H, 6H, 7H, 8H-pyrido[4,3-d]pyrimidine-2,4-dione]: 3.6 µM; `Cc1cccc(Cn2c(=O)c3c(n(C)c2=O)CCN(Cc2ccccc2)C3)c1` [Example 3, 6-benxyl-1-methyl-3-[(3-methylphenyl)methyl]-1H, 2H, 3H, 4H, 5H, 6H, 7H, 8H-pyrido[4,3-d]pyrimidine-2,4-dione]: 0.24 µM. Same read-out and setting: the value for `Cc1cccc(Cn2c(=O)c3c(n(C(C)C)c2=O)CCN(Cc2ccccc2)C3)c1` [Example 4, 6-benzyl-1-isopropyl-3-(3-methylbenzyl)-5,6,7,8-tetrahydropyrido[4,3-d]pyrimidine-2,4(1H,3H)-dione] was 4.1 µM; that for `O=c1[nH]c2c(c(=O)n1Cc1ccc(Cl)cc1)CN(Cc1ccccc1)CC2` [Example 5, 6-benzyl-3-(4-chlorobenzyl)-5,6,7,8-tetrahydropyrido[4,3-d]pyrimidine-2,4(1H,3H)-dione] was 10 µM.

For the molecule `Cn1c2c(c(=O)n(Cc3ccc(Cl)cc3)c1=O)CN(Cc1ccccc1)CC2` [Example 6, 6-benzyl-3-(4-chlorobenzyl)-1-methyl-5,6,7,8-tetrahydropyrido[4,3-d]pyrimidine-2,4(1H,3H)-dione], the EC50 under setting [1] was determined as 0.29 µM. Turning to `CC(C)n1c2c(c(=O)n(Cc3ccc(Cl)cc3)c1=O)CN(Cc1ccccc1)CC2` [Example 7, 6-benzyl-3-(4-chlorobenzyl)-1-isopropyl-5,6,7,8-tetrahydropyrido[4,3-d]pyrimidine-2,4(1H,3H)-dione], the EC50 under setting [1] turned out to be 14 µM. Same read-out and setting: next, `O=c1[nH]c2c(c(=O)n1Cc1ccc(C(F)(F)F)cc1)CN(Cc1ccccc1)CC2` [Example 8, 3-(4-(trifluoromethyl)benzyl)-6-benzyl-5,6,7,8-tetrahydropyrido[4,3-d]pyrimidine-2,4(1H,3H)-dione]: 1.3 µM; `Cn1c2c(c(=O)n(Cc3ccc(C(F)(F)F)cc3)c1=O)CN(Cc1ccccc1)CC2` [Example 9]: 1.1 µM. For the molecule `CC(C)n1c2c(c(=O)n(Cc3ccc(C(F)(F)F)cc3)c1=O)CN(Cc1ccccc1)CC2` [Example 10, 3-(4-(trifluoromethyl)benzyl)-6-benzyl-5,6,7,8-tetrahydro-1-isopropylpyrido[4,3-d]pyrimidine-2,4(1H,3H)-dione], the EC50 under setting [1] turned out to be 4 µM. Turning to `Cn1c2c(c(=O)n(Cc3cccc(C(F)(F)F)c3)c1=O)CN(Cc1ccccc1)CC2` [Example 13], the EC50 under setting [2] amounted to 1.1 µM. `CCn1c2c(c(=O)n(Cc3cccc(C(F)(F)F)c3)c1=O)CN(Cc1ccccc1)CC2` [Example 14, 3-(3-(trifluoromethyl)benzyl)-6-benzyl-1-ethyl-5,6,7,8-tetrahydropyrido[4,3-d]pyrimidine-2,4(1H,3H)-dione]: the EC50 under setting [1] was found to be 1 µM. Turning to `Cn1c2c(c(=O)n(Cc3cccc(Cl)c3)c1=O)CN(Cc1ccccc1)CC2` [Example 15, 3-(3-chlorobenzyl)-6-benzyl-5,6,7,8-tetrahydro-1-methylpyrido[4,3-d]pyrimidine-2,4(1H,3H)-dione], the EC50 under setting [1] came out at 2.1 µM.

As to `Cn1c2c(c(=O)n(Cc3cccc(Br)c3)c1=O)CN(Cc1ccccc1)CC2` [Example 17, 6-benzyl-3-(3-bromobenzyl)-1-methyl-5,6,7,8-tetrahydropyrido[4,3-d]pyrimidine-2,4(1H,3H)-dione], the EC50 under setting [1] was determined as 0.86 µM. The same measure, in the same setting: next, `C#Cc1cccc(CN2CCc3c(c(=O)n(Cc4ccc(C(F)(F)F)cc4)c(=O)n3C)C2)c1` [Example 18, 6-(3-ethynylbenzyl)-1-methyl-3-(4-(trifluoromethyl)benzyl)-5,6,7,8-tetrahydropyrido[4,3-d]pyrimidine-2,4(1H,3H)-dione]: 0.68 µM.

For the molecule `C#Cc1cccc(CN2CCc3c(c(=O)n(Cc4ccccc4C)c(=O)n3C)C2)c1` [Example 19, 6-(3-ethynylbenzyl)-1-methyl-3-(2-methylbenzyl)-5,6,7,8-tetrahydropyrido[4,3-d]pyrimidine-2,4(1H,3H)-dione], under setting [1], the EC50 was 1.1 µM. The same measure, in the same setting: the value for `C#Cc1cccc(CN2CCc3c(c(=O)n(Cc4cccc(C)c4)c(=O)n3C)C2)c1` [Example 20, 6-(3-ethynylbenzyl)-1-methyl-3-(3-methylbenzyl)-5,6,7,8-tetrahydropyrido[4,3-d]pyrimidine-2,4(1H,3H)-dione] was 0.55 µM. The same measure, in the same setting: next, `C#Cc1cccc(CN2CCc3c(c(=O)n(Cc4ccc(Cl)cc4)c(=O)n3C)C2)c1` [Example 21, 3-(4-chlorobenzyl)-6-(3-ethynylbenzyl)-1-methyl-5,6,7,8-tetrahydropyrido[4,3-d]pyrimidine-2,4(1H,3H)-dione]: 0.63 µM; `Cn1c2c(c(=O)n(Cc3ccc(C(F)(F)F)cc3)c1=O)CN(Cc1cccc(Cl)c1)CC2` [Example 22, 6-(3-chlorobenzyl)-1-methyl-3-(4-(trifluoromethyl)benzyl)-5,6,7,8-tetrahydropyrido[4,3-d]pyrimidine-2,4(1H,3H)-dione]: 0.29 µM; `Cn1c2c(c(=O)n(Cc3ccc4c(c3)OCO4)c1=O)CN(Cc1ccccc1)CC2` [Example 23, 3-(benzo[d][1,3]dioxol-5-ylmethyl)-6-benzyl-1-methyl-5,6,7,8-tetrahydropyrido[4,3-d]pyrimidine-2,4(1H,3H)-dione]: 2.6 µM. On the same count and under the same terms, the value for `Cn1c2c(c(=O)n(Cc3ccc(Br)cc3)c1=O)CN(Cc1cccc(C#N)c1)CC2` [Example 24, 3-((3-(4-bromobenzyl)-1-methyl-2,4-dioxo-1,2,3,4,7,8-hexahydropyrido[4,3-d]pyrimidin-6(5H)-yl)methyl)benzonitrile] was 0.11 µM.

Turning to `Cn1c2c(c(=O)n(Cc3ccc(Cl)cc3)c1=O)CN(Cc1cccc(C#N)c1)CC2` [Example 25, 3-((3-(4-chlorobenzyl)-1-methyl-2,4-dioxo-1,2,3,4,7,8-hexahydropyrido[4,3-d]pyrimidin-6(5H)-yl)methyl)benzonitrile], under setting [2], the EC50 worked out at 0.19 µM.

For the molecule `Cn1c2c(c(=O)n(Cc3ccc(C(F)(F)F)cc3)c1=O)CN(Cc1cccc(C#N)c1)CC2` [Example 26, 3-((1-methyl-2,4-dioxo-3-(4-(trifluoromethyl)benzyl)-1,2,3,4,7,8-hexahydropyrido[4,3-d]pyrimidin-6(5H)-yl)methyl)benzonitrile], under setting [1], the EC50 was found to be 0.085 µM.

As for `CCn1c2c(c(=O)n(Cc3ccc(C(F)(F)F)cc3)c1=O)CN(Cc1cccc(C#N)c1)CC2` [Example 27, 3-((1-ethyl-2,4-dioxo-3-(4-(trifluoromethyl)benzyl)-1,2,3,4,7,8-hexahydropyrido[4,3-d]pyrimidin-6(5H)-yl)methyl)benzonitrile], under setting [1], the EC50 came out at 0.22 µM.

Consider `CCn1c2c(c(=O)n(Cc3ccc(Cl)cc3)c1=O)CN(Cc1cccc(C#N)c1)CC2` [Example 28, 3-((3-(4-chlorobenzyl)-1-ethyl-2,4-dioxo-1,2,3,4,7,8-hexahydropyrido[4,3-d]pyrimidin-6(5H)-yl)methyl)benzonitrile], for which the EC50 under setting [1] was found to be 0.022 µM. The same measure, in the same setting: next, `Cc1cccc(CN2CCc3c(c(=O)n(Cc4ccc(C(F)(F)F)cc4)c(=O)n3C)C2)c1` [Example 29, 1-methyl-6-(3-methylbenzyl)-3-(4-(trifluoromethyl)benzyl)-5,6,7,8-tetrahydropyrido[4,3-d]pyrimidine-2,4(1H,3H)-dione]: 1.4 µM. With `Cc1ccccc1CN1C(=O)C2=C(CCN(Cc3ccccc3)C2)N2CCN=C12` [TIC10, 11-benzyl-7-[(2-methylphenyl)methyl]-2,5,7,11-tetraazatricyclo[7.4.0.0^2,6]trideca-1(9),5-dien-8-one, reference compound], the EC50 under setting [2] came to 3 µM.
